# Assay results published in PubChem BioAssay (Tox21).
# The chains behind the UniProt entries cited, without tags or fusion partners.
# UniProt P28223, whole entry, looked up: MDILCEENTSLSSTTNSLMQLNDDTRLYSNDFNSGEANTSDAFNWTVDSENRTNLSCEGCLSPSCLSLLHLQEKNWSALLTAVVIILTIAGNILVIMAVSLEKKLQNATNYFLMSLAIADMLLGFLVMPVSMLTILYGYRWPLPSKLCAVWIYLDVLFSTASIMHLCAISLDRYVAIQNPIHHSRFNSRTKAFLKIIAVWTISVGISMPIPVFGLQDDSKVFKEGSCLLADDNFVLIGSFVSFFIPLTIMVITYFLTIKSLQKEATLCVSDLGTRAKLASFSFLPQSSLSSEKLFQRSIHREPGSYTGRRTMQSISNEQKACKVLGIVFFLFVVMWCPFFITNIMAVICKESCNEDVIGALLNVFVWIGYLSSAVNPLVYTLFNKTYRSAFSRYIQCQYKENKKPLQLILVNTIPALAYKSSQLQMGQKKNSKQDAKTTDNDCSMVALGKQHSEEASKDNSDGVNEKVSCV
# This is a selection; strong and weak results do not stand in their true shares. Inconclusive results are not listed. Activity calls are given as the source filed them. Calls follow the shape of the full dose curve.
# Molecular target: 5-hydroxytryptamine receptor 2A (Homo sapiens) (UniProt P28223)
# Test: 5-hydroxytryptamine receptor 2A (HTR2A) small molecule antagonists, cell-based qHTS assay (AID 1963586); also: nearly all actives have a fitted effect of over 45% in size
# Settings: HTR2A-CHO cells, DOI-induced calcium flux, fluorescence
# Method in brief: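 Antagonist-mode intracellular calcium assay: DOI (4 nM) added after 5 min compound pre-incubation at room temperature to dye-loaded HTR2A-CHO cells. Fluorescence followed for 3 min, sampled every second.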
# Potency is read from the fitted curve at half-maximal effect.
row,SMILES,Potency
1,Clc1cccc(N2CCNCC2)c1,active: 23.1 nM
2,CCCN1CCC[C@@H]2Cc3[nH]ncc3C[C@H]21,active: 2050 nM
3,COc1ccc2[nH]cc(CCN(C(C)C)C(C)C)c2c1,active: 1.4 nM

# Molecular target: 5-hydroxytryptamine receptor 2A (Homo sapiens) (UniProt P28223)
# Test: 5-hydroxytryptamine receptor 2A (HTR2A) small molecule agonists, cell-based qHTS assay (AID 1963587); also: nearly all actives have a fitted effect of over 30% in size
# Settings: HTR2A-CHO cells, calcium flux fluorescence, agonist mode
# Method in brief: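 HTR2A-CHO cells, plated 18 h at 37 C/5% CO2, dye-loaded 1 h at 37 C; compounds in DMSO added by pin tool (agonist mode). Intracellular calcium flux read as kinetic fluorescence on FDSS over 2 min at 1 s intervals.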
row,SMILES,Potency
1,Clc1cccc(N2CCNCC2)c1,active: 26.8 nM
2,CCCN1CCC[C@@H]2Cc3[nH]ncc3C[C@H]21,active: 338 nM
3,COc1ccc2[nH]cc(CCN(C(C)C)C(C)C)c2c1,active: 2 nM
